This is a selection; strong and weak results do not stand in their true shares. The source made the active and inactive calls.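 Rule for the calls: active = B-score, a plate-corrected calcium signal, over three deviations above library mean, with baseline fluorescence within five deviations of library mean; inactive = the rest.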

By UniProt entry, the sequences of proteins in these tests, tags left out.
UniProt P49798, whole entry: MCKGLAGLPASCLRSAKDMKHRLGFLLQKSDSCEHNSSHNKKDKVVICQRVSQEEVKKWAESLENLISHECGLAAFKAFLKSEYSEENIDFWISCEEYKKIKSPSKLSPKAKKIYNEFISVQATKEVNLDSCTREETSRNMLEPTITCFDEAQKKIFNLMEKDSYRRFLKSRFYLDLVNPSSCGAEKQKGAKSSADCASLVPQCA

For 31 compounds, outcome results are on record in PubChem BioAssay AID463165 (Johns Hopkins Ion Channel Center, 2010).

The target of the experiment is Regulator of G-protein signaling 4 (Homo sapiens) (UniProt P49798). The experiment in a line: blockers of RGS4 function in M3R calcium signaling – cell-based, HEK293 M3R inducible RGS4, calcium flux, primary screen (AID 463165).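 Note: RGS4 expression induced by doxycycline in cells with stable M3 receptor.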 Particulars: Fluo-4 calcium flux, at 10 µM, triggered by carbachol at its EC20. A general note: Calcium flux is commonly read through the fluorescence of an indicator in the cells.
Regarding `C[C@@H]1C=CCP(=O)(Oc2ccccc2)O1` (stereo partly specified), the outcome was inactive. In the case of `C[C@H]1OP(=O)(Oc2ccccc2)C[C@@H]2O[C@@H]21` (stereo partly specified), the outcome was inactive. Under `O=C(OCCN1CCN(CCOCc2ccccc2)CC1)C(O)(c1ccccc1)c1ccccc1` stands “inactive”; under `CCOC(=O)c1ccc(NP(C)(=O)Oc2cc(C)cc(C)c2)cc1` (stereo unspecified), “inactive”; under `Cc1cc(C)cc(OP(C)(=O)Nc2ccc(C)cc2C)c1` (stereo unspecified), “inactive”. Under `O=[As](O)(c1cccc(O)c1)c1cccc(O)c1` stands “inactive”. Under `Cc1cccc(OCC(=O)OC2CN3CCC2CC3)c1` (stereo unspecified) stands “inactive”; under `CS(=O)(=O)c1ccc(Cl)c(NC(=O)COC(=O)C(O)(c2ccccc2)c2ccccc2)c1`, “inactive”; under `COc1ccccc1OP(C)(=O)Nc1cccc(Br)c1` (stereo unspecified), “inactive”. For the compound `COc1cc(C(=O)NCC2(N3CCOCC3)CCCCC2)cc(Cl)c1OC(C)C`, the result was inactive.

As to `O=[As](O)(O)c1cccnc1`, the outcome was inactive.

In the case of `O=C(OC1CN2CCC1CC2)c1ccc(Cl)cc1` (stereo unspecified), the result was inactive. To `CCOP(=O)(Nc1cccc2ccccc12)OCC` belongs “inactive”; to `CCCOP(=S)(Nc1nc(N)cc(=O)[nH]1)OCCC`, “inactive”. On to `Cc1ccc(C)c(NP(C)(=O)Oc2ccccc2)c1` (stereo unspecified), for which the outcome was inactive. Take `Nc1cccc2c([As](=O)(O)O)cccc12`: the result was inactive.

Regarding `Cc1ccc(NCCc2c([N+](=O)[O-])cc([N+](=O)[O-])cc2[N+](=O)[O-])cc1`, the outcome was inactive. To `CP(=O)(Nc1cccc(Br)c1)Oc1ccccc1` (stereo unspecified) belongs “inactive”; to `Cc1cc(C)cc(OP(C)(=O)Nc2ccccn2)c1` (stereo unspecified), “inactive”.

Turning to `O=C(O)COc1ccc([As](=O)(O)O)cc1[N+](=O)[O-]`, the outcome was inactive. Turning to `Nc1ccccc1[As](=O)(O)c1ccccc1`, the result was inactive. For `CS(=O)(=O)c1cc([N+](=O)[O-])c2no[n+]([O-])c2c1`, the result was inactive. To `O=P(Nc1nccs1)(c1ccccc1)c1nc2ccccc2s1` (stereo unspecified) belongs “inactive”.

In the case of `O=P(Nc1nccs1)(Oc1ccccc1)Oc1ccccc1`, the result was inactive. To `O=C(O)c1cccc(Nc2c([N+](=O)[O-])cc([N+](=O)[O-])cc2[N+](=O)[O-])c1` belongs “inactive”; to `CCOP1(=S)c2c(C)nn(CCC#N)c2N=C(c2ccccc2F)N1C` (stereo unspecified), “inactive”; to `CN(C(=O)Cc1ccc(Cl)c(Cl)c1)[C@H]1CC[C@@]2(CCCO2)C[C@@H]1N1CCCC1`, “inactive”. For `CC1=NCCc2c1[nH]c1ccccc21.O=[N+]([O-])c1cc([N+](=O)[O-])c(O)c([N+](=O)[O-])c1`, the result was inactive. Under `CN(C)C(=O)c1cc([N+](=O)[O-])cc2c1-c1c(cc([N+](=O)[O-])cc1[N+](=O)[O-])C2=O` stands “inactive”.

Regarding `O=[N+]([O-])c1ccc2c(c1)nnn2O`, the result was inactive. Under `CN(C(=O)Cc1ccccc1)[C@@H]1CC[C@]2(CCCO2)C[C@H]1N1CCCC1` stands “inactive”.
